Experimental data taken from PubChem BioAssay AID1321 (The Scripps Research Institute Molecular Screening Center, 2008).
Values joined by “and” are separate entries in the source; they are usually repeats but may differ in a detail not shown here. Identical values can stand only once. This is a selection; strong and weak results do not stand in their true shares. Active and inactive are the calls of the source.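 How the source made its calls: active means activation above the mean of all tested compounds plus 3 SD, set per screening run (cut at about 8.8% in these data); inactive means the rest.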

Amino acid sequences for entries named in this document (tags omitted). A change or cut given only in a name is not applied to a line headed by its entry.
UniProt P30291: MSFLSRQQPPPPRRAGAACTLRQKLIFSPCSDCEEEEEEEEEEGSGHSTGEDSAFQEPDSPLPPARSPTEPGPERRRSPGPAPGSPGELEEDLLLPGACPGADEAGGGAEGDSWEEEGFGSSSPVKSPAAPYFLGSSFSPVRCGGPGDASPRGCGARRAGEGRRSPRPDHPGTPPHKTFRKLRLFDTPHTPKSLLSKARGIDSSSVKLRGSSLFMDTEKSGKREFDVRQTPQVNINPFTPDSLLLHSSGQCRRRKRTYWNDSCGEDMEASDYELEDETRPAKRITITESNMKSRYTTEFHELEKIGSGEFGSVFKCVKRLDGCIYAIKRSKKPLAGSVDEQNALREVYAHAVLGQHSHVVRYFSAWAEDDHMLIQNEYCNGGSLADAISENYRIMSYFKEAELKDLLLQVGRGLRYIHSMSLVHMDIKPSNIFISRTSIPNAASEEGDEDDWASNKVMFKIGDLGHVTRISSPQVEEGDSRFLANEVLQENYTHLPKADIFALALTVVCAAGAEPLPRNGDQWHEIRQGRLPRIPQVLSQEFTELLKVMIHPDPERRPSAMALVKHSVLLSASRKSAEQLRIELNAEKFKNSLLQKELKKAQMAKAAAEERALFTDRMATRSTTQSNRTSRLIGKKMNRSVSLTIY

Target: Wee1-like protein kinase (Homo sapiens) (UniProt P30291)
Test: Wee1 degradation inhibitors, primary screen, cell-based, HeLa, Wee1K328M-luciferase, luminescence (AID 1321);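 further: cells exposed to compound for 20 h before luminescence read; 0% = DMSO alone and 100% = MG132 at 30 µM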
Conditions: HeLa Luc-Wee1K328M stability, at 5 µM, active compounds read high, 100% = proteasome inhibitor MG132 effect

SMILES | reporter increase
Nc1cc(N)c2nonc2c1[N+](=O)[O-] | inactive: -1.04%
CC(C)CC(=O)NC(Sc1ccc(Cl)cc1)C(Cl)(Cl)Cl (stereo unspecified) | inactive: -2.75%
O=C(NC(Sc1ccncn1)C(Cl)(Cl)Cl)c1ccccc1 (stereo unspecified) | inactive: 1.51%
Cc1c2non([O-])c-2c(C)[n+](=O)[n+]1[O-] | inactive: -3.42%
Oc1ccccc1CNc1ccccn1 | inactive: 2.04%
NC(=O)c1cc([N+](=O)[O-])cc([N+](=O)[O-])c1N | inactive: 5.63%
Cc1ccc(N/C(=N/P(=O)(N2CCOCC2)N2CCOCC2)N2CCOCC2)cc1 | inactive: -2.69%
Cc1ccc(OP(=O)(Nc2nccs2)Oc2ccc(C)cc2)cc1 | inactive: -1.13%
COc1ccccc1OP(=O)(Nc1ccc(C)cn1)Oc1ccccc1OC | inactive: 3.06%
CN1CCCC(OC(=O)C(c2ccccc2)c2ccccc2)C1 (stereo unspecified) | inactive: -2.44%
Clc1ccc(Cl)c(NC2=NCC(CBr)S2)c1 (stereo unspecified) | inactive: -0.33%
CCN(N=Nc1nonc1N)c1nonc1N | inactive: 0.55%
Nc1cccc2ccc([As](=O)(O)O)cc12 | inactive: -0.4%
CC(=O)Nc1ccc([As](=O)(O)O)cc1 | inactive: 6.43%
O=C(O)c1ccccc1[As](=O)(O)O | active: 11.5%
O=P(Nc1nc2ccc(Cl)cc2s1)(c1ccccc1)c1ccccc1 | inactive: -0.26%
Cc1ccc(NP(=O)(Oc2ccccc2F)Oc2ccccc2F)nc1 | inactive: -2.88%
Cc1cc(SC(NC(=O)c2ccc(F)cc2)C(Cl)(Cl)Cl)ncn1 (stereo unspecified) | inactive: -1.11%
CCOP(=O)(Nc1ccccc1)OCC | inactive: -0.84% and inactive: 0.94%
CC(C)(C)C(=O)NC(Sc1ccncn1)C(Cl)(Cl)Cl (stereo unspecified) | inactive: -1.58%
O=[N+]([O-])c1ncn(CCn2ncnc2[N+](=O)[O-])n1 | inactive: -1.7%
O=[N+]([O-])c1cccc(NC2=NCC(CBr)S2)c1 (stereo unspecified) | inactive: 4.19%
O=C(O)CNc1ccc([As](=O)(O)O)cc1 | inactive: 2.35%
O=C(Nc1cc([As](=O)(O)O)ccc1O)c1ccccc1 | inactive: -3.41%
C[N+]1=C2C=CC=CC=C2SC12C([N+](=O)[O-])=CC([N+](=O)[O-])=C[C-]2[N+](=O)[O-] (stereo unspecified) | inactive: -4.03%
Nc1ccc([As](=O)(O)c2ccc(N)cc2)cc1 | inactive: 3.92%

SMILES | reporter increase
CCN(/C(=N/P(=O)(N1CCOCC1)N1CCOCC1)N1CCOCC1)c1ccc(OC)cc1 | inactive: 1.43%
CN(C)C(=O)OCCc1n(C)cc[n+]1C | inactive: -1.15%
CC(C)=N/N=C(\N)N[N+](=O)[O-] | inactive: 1.62%
CC1CCN(C(=O)Oc2c(Cl)cc(Cl)c3cccnc23)CC1 | inactive: -1.62%
COc1ccc(C2=NCC(CBr)S2)cc1 (stereo unspecified) | inactive: -2.19%
CC(=O)N1C2C3N(C(C)=O)C1C1N(C(C)=O)C(C(N1C(C)=O)N3C(C)=O)N2C(C)=O | inactive: -0.85%
O=[N+]([O-])c1cccc2n[nH]nc12 | inactive: 0.99%
O=[N+]([O-])c1cc([N+](=O)[O-])c(CCNc2ccccc2)c([N+](=O)[O-])c1 | inactive: 0.25%
CCc1nc2c(n1)c1c(non1O)c1c2no[n+]1[O-] | inactive: -2.6%
Cc1ccc(NP(=O)(Oc2ccccc2)Oc2ccccc2)nc1 | inactive: -0.08%
O=P(Nc1nccs1)(c1ccccc1)c1ccccc1 | inactive: 0.93%
CC(C)C(=O)NC(Sc1ccccc1)C(Cl)(Cl)Cl (stereo unspecified) | inactive: -4.73%
c1nnnn1CCn1cnnn1 | inactive: -0.39%
O=[N+]([O-])c1ncn(CCn2cnc([N+](=O)[O-])n2)n1 | inactive: -2.99%
CC(=O)NC(SC(=S)N(C)C)C(Cl)(Cl)Cl (stereo unspecified) | inactive: -0.42%
O=[As](O)(c1ccccc1)c1ccc(O)cc1 | inactive: 1.39%
C(Cc1nn[nH]n1)Cc1nn[nH]n1 | inactive: 2.97%
Nc1ccc([As](=O)(O)c2ccc([N+](=O)[O-])cc2)cc1 | inactive: -1.37%
O=C(OC1CN2CCC1CC2)c1cccc(Cl)c1 (stereo unspecified) | inactive: -0.49%
O=P(Nc1ccccn1)(c1ccc(Br)cc1)c1ccc(Br)cc1 | inactive: 4.05%
O=P(Nc1nc2ccccc2s1)(c1ccccc1)c1ccccc1 | inactive: -2.44%
Cc1ccc(OP(=O)(Nc2ccccn2)Oc2ccc(C)cc2)cc1 | inactive: 0.2%
CC(=O)NC(SC(=S)N(CC(C)C)CC(C)C)C(Cl)(Cl)Cl (stereo unspecified) | inactive: -0.81%
COC(=O)c1cc2c(s1)N=C(c1ccccc1)N(C)P2(=O)N1CCOCC1 (stereo unspecified) | inactive: 0.73%
CCC(=O)N1C2C3N(C(=O)CC)C1C1N(C(=O)CC)C(C(N1C(=O)CC)N3C(=O)CC)N2C(=O)CC | inactive: -1.41%
